Ab-91 heavy chain CDR variants: yeast mating affinities

The measurements come from Engelhart et al. 2022 (doi:10.1038/s41597-022-01779-4) through the FLAb antibody collection.

All variants were tested on one target, the spike HR2 peptide PDVDLGDISGINAS (SARS-CoV-2).

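The starting antibody came from a phage panning campaign against this peptide. The library (AAYL51) carries one to three amino acid substitutions per variant, with no insertions or deletions. The assay is AlphaSeq: two haploid yeast populations carry antibody and antigen on their surface. The frequency of each diploid, read from paired DNA barcodes, reflects how well the two displayed proteins bind. Each replicate has its own calibration line, from reference interactions of the BCL2 family. Mating was done three times.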

Each scFv is VL, three GGGGS repeats, VH, as in the parent Ab-91, and differs from it in the CDRs of the heavy chain only.
VL: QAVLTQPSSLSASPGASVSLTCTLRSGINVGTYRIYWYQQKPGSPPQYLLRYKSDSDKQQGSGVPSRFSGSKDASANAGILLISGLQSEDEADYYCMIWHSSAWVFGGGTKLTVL
VH: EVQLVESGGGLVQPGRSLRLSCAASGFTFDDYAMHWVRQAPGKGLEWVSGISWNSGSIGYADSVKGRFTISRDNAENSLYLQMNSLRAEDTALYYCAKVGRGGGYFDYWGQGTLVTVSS

Positions count from residue 1 of the parent VH; W53P puts P in place of W.
This list gathers variants with a substitution at K65 (VH, numbered from residue 1).
Scale: log10 of Kd in nM, estimated from mating counts; low values are strong binders.
An entry "ND" has no value in the source: the pair was not observed among the diploids in that replicate. This suggests poor binding but is not conclusive.
In this assay the parent's reference entry averaged 1.86; its copy inside this library read 0.88.
Nonspecific signal, from three strains lacking the peptide, appeared in 21% of pairings of library AAYL51, centred on 4.54 (5% of these signals below 3.26); values are not corrected for it.

Variant W53P/N54V/K65F gave 1.91, 2.20, 1.85. Variant S55W/I58M/K65Q showed ND, 5.47, 4.58. For S63R/K65M/G102Y, the assay gave ND, ND, ND. Variant F27I/I51F/K65D gave ND, ND, ND. With G59P/K65E/V99N the result was 4.68, ND, 4.33. With G50M/K65V/G100V the result was 4.45, 5.89, 4.15. Variant N54S/S57C/K65M gave 4.60, 5.44, 5.12.

Variant M34E/K65L/G100T showed ND, ND, ND. Variant D30T/Y32E/K65V gave ND, ND, ND. Variant D30R/K65L/Y108R gave 1.69, 1.42, 1.48. With D31M/H35V/K65A the result was ND, ND, ND. Variant Y60L/K65I gave 3.63, 3.53, 4.06. For M34N/K65D/D107E, the assay gave ND, 3.65, ND. Variant F27N/Y32F/K65S gave 4.48, 5.66, 4.50.

Variant S57P/V64A/K65Q gave ND, 4.75, 3.46. For G56A/S63N/K65E, the assay gave 0.59, 0.61, -0.12. Variant S55K/K65F/G102T showed 4.74, ND, ND. Variant T28V/Y60W/K65I gave ND, 5.52, 3.91. For N54M/K65S/G103R, the assay gave 4.42, 5.49, 4.52. With F27P/T28Y/K65G the result was 4.47, ND, ND. With H35V/K65N/G100Q the result was ND, ND, ND.

For H35A/K65W/F106A, the assay gave ND, 5.54, 4.56. Variant G59E/K65A/V99I showed 2.10, 1.98, 1.62. Variant G56P/K65R/D107C showed ND, ND, 4.59. With S52K/K65D/G104V the result was 5.35, ND, ND. With K65I/V99H/Y108N the result was 2.51, 2.73, 2.03. Variant D31W/K65R/G104T gave 3.21, 3.14, 3.24. With G26Y/Y32M/K65G the result was ND, ND, ND.

Variant D31I/K65G/V99S showed 4.99, ND, 6.07. For M34A/G56S/K65M, the assay gave ND, ND, 2.83. Variant S52P/K65M/F106D showed ND, 6.13, ND. With Y60T/K65P/Y105S the result was 3.72, ND, ND. Variant G50T/K65G/Y105C gave 4.31, ND, 4.40. With G59P/K65V/F106E the result was ND, ND, ND. For G56W/A61K/K65V, the assay gave ND, ND, ND.

Variant S63C/K65G/V99M showed ND, 4.46, ND. With G59S/K65W/Y105P the result was 4.00, ND, ND. For Y32H/I58R/K65A, the assay gave 1.47, 1.47, 0.89. Variant Y32F/K65H/Y108K gave 1.70, 0.72, 0.43. With F29V/I58Y/K65Q the result was 5.69, 4.86, 5.38. For G59C/V64H/K65W, the assay gave ND, ND, ND. Variant F27A/K65F/G104K showed 4.87, ND, ND.

Variant I51R/S57R/K65C showed ND, ND, ND. Variant M34D/I51S/K65S showed ND, ND, ND. Variant G56D/Y60E/K65Y gave 4.85, ND, ND. Variant Y60K/K65T/Y105T showed ND, ND, ND. For G59N/V64I/K65D, the assay gave 3.41, 2.83, ND.

7 of these entries, quoted again:

changes	log10 Kd, replicates
F27A/K65F/G104K	4.87, ND, ND
M34D/I51S/K65S	ND, ND, ND
S52P/K65M/F106D	ND, 6.13, ND
G59C/V64H/K65W	ND, ND, ND
F27I/I51F/K65D	ND, ND, ND
M34N/K65D/D107E	ND, 3.65, ND
D30R/K65L/Y108R	1.69, 1.42, 1.48